Yeast mating assay 2: variants of the scFv Ab-91

From the AlphaSeq antibody data of Engelhart et al. 2022 (doi:10.1038/s41597-022-01779-4), copy in the FLAb collection.

Binding partner: SARS-CoV-2 spike HR2 peptide, sequence PDVDLGDISGINAS.

Ab-91 is the parent antibody, in scFv form: VL, then a (GGGGS)3 linker, then VH. The light chain is unchanged in all variants.
VL: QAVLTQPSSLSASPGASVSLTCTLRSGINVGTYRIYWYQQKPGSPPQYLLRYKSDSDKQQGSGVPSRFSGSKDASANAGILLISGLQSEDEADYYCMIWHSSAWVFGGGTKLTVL
VH: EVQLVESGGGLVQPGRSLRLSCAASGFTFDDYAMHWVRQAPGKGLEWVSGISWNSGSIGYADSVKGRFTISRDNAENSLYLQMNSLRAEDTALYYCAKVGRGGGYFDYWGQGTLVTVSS

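AAYL51 was designed without a model: most single CDR substitutions and a random sample of double and triple ones. In AlphaSeq, yeast of one mating type display the scFv and yeast of the other type display the target. The frequency of each diploid, read from paired DNA barcodes, reflects how well the two displayed proteins bind. Scores were corrected for input abundance and mapped to Kd with protein pairs of known affinity run in the same pool. The assay was run in three technical replicates.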

Variants are written as CDR1, CDR2 and CDR3 of the heavy chain (limits as in the source). Parent: GFTFDDYAMH, GISWNSGSIGYADSVK, VGRGGGYFDY.
Every variant below is changed at S52 of the VH (sequential numbering).
Each Kd is an estimate from the mating assay, the geometric mean of the replicates in which the pair was seen; lower is stronger.
A pair that was not seen in any replicate is written "nd"; this usually means weak binding, but a binder can also be missed.
Entries are sorted by rising average, undetected variants last.

With GFTFDDYAMH / GIGWNSGSIGYADSVK / VGRGGGVFDN the result was 530 nM (1 of 3 replicates; controls 0 of 9). The variant GFTFDDYAMH / GIRWNSGSIIYADSVK / VGRGMGYFDY showed 640 nM (1 of 3 replicates; controls 1 of 9). With GFTFDDYAMH / GIDMNSGSIGYADSVK / VGKGGGYFDY the result was 780 nM (3 of 3 replicates; controls 0 of 9). The variant GYTFDDYAMH / GIEWNSGSIGYADSVY / VGRGGGYFDY showed 990 nM (1 of 3 replicates; controls 1 of 9). The variant GFTFDDYACH / GIDWNSGSIGYADSVK / VGIGGGYFDY showed 1.7 µM (3 of 3 replicates; controls 1 of 9). For GFTFDDYAMH / GIEWNSGSIGGADSVK / VGRGGGYFDY, the assay gave 3.5 µM (1 of 3 replicates; controls 1 of 9). The variant GNTFDDYAMH / GIYWNSGSIGYADSVK / VGVGGGYFDY gave 5.5 µM (1 of 3 replicates; controls 0 of 9). For GFTFDDYAMH / GIDWNSGSIGYADYVN / VGRGGGYFDY, the assay gave 7.5 µM (3 of 3 replicates; controls 2 of 9). With GFTFDNYAMH / GIYWNSGSIGYANSVK / VGRGGGYFDY the result was 9.4 µM (1 of 3 replicates; controls 1 of 9).

The variant GFTFDDYAMH / GITANSGSIGYADSVG / VGRGGGYFDY showed 14 µM (2 of 3 replicates; controls 2 of 9). The variant RFTFDDYAMH / GIFWNSGSIGGADSVK / VGRGGGYFDY gave 18 µM (3 of 3 replicates; controls 5 of 9). For GFTFNDYAMH / GFPWNSGSIGYADSVK / VGRGGGYFDY, the assay gave 30 µM (1 of 3 replicates; controls 0 of 9). With GFTFDDYAMH / GIEWNSGSIGYADSVK / VGRGGGCFDY the result was 32 µM (2 of 3 replicates; controls 2 of 9). For GFTFDDYAMH / GIRWNSGSIGYADCVK / VGRIGGYFDY, the assay gave 34 µM (1 of 3 replicates; controls 7 of 9). The variant GFTFDDYAMH / GIDWNSGSIGYADSVK / VGPGGGEFDY showed 38 µM (3 of 3 replicates; controls 5 of 9). The variant GFTFDDYAMH / GIRWNSGSIGYADSVK / VGRGGGYFDY showed 61 µM (2 of 3 replicates; controls 1 of 9). The variant GFLFDDYAMH / GIKCNSGSIGYADSVK / VGRGGGYFDY gave 63 µM (3 of 3 replicates; controls 4 of 9). With GFTFDDYAMH / GICWNSGSIGYADSVK / VGRGGGYFDY the result was 73 µM (1 of 3 replicates; controls 3 of 9).

For GFTTDDYAMH / GITWNSGSIGYADSVH / VGRGGGYFDY, the assay gave 95 µM (2 of 3 replicates; controls 6 of 9). For GFTFDDLAMH / GITWNSGSIGYADSVK / VGCGGGYFDY, the assay gave 120 µM (3 of 3 replicates; controls 8 of 9). With GFTFDDYAMH / GICWNSGSIIYADSVK / VGRGGGYFDY the result was 130 µM (2 of 3 replicates; controls 3 of 9). For GFTFDDYAMH / GIPWNSGSIRYADSVK / VGRGGGYFDY, the assay gave 130 µM (3 of 3 replicates; controls 7 of 9). The variant GFSFDDYAMH / GIPWNSGSIAYADSVK / VGRGGGYFDY showed 140 µM (2 of 3 replicates; controls 7 of 9). With GFTFDDYAMH / GINWNSGSIGYADSAK / VWRGGGYFDY the result was 240 µM (1 of 3 replicates; controls 2 of 9). For GFTFDDYAMH / GIRWNSGSIGYADSVK / PGRGGTYFDY, the assay gave 340 µM (1 of 3 replicates; controls 4 of 9). The variant GRTFDDYAMH / GITWNSGSIGYADSVK / VGRGGGYFDP showed 500 µM (3 of 3 replicates; controls 8 of 9). The variant GFEFDDYAMH / GIVWNSGSIGYADSVK / VGRNGGYFDY gave 920 µM (2 of 3 replicates; controls 4 of 9).

The variant GFTFDDYAMH / GIWWNSGSIGYADSVK / VGRGEGYFDY gave nd (0 of 3 replicates; controls 2 of 9). The variant GFTFDDYAMH / GIVWNSGSIGDADSVK / VGRGGGYKDY showed nd (0 of 3 replicates; controls 1 of 9). For CFTFDDYAMH / GIVWNSGSIGYADSVK / VGVGGGYFDY, the assay gave nd (0 of 3 replicates; controls 1 of 9). The variant GFTFDDYAMH / GGQWNSGSIGYADSCK / VGRGGGYFDY gave nd (0 of 3 replicates; controls 1 of 9). For GFTFDDYAMH / GICINSGSIGYADSVK / VGRGGGFFDY, the assay gave nd (0 of 3 replicates; controls 0 of 9). For GFTVDDYAMH / GIHWNSGHIGYADSVK / VGRGGGYFDY, the assay gave nd (0 of 3 replicates; controls 0 of 9). The variant GFTFDDYAML / GIGWNSGSIGYADSVK / VGYGGGYFDY showed nd (0 of 3 replicates; controls 2 of 9). The variant GVTFDTYAMH / GIIWNSGSIGYADSVK / VGRGGGYFDY showed nd (0 of 3 replicates; controls 0 of 9). With GFTHEDYAMH / GIVWNSGSIGYADSVK / VGRGGGYFDY the result was nd (0 of 3 replicates; controls 2 of 9).

With GFTFDDYAMA / GIMWNSGSIGYADSVK / VGRGGGYFDY the result was nd (0 of 3 replicates; controls 0 of 9). With GFTFDDYMMH / GIGWNSGSIGYADSVK / VQRGGGYFDY the result was nd (0 of 3 replicates; controls 0 of 9). The variant SFTFKDYAMH / GIDWNSGSIGYADSVK / VGRGGGYFDY showed nd (0 of 3 replicates; controls 0 of 9). For GFTFDDYAMH / GFHWNSYSIGYADSVK / VGRGGGYFDY, the assay gave nd (0 of 3 replicates; controls 0 of 9). The variant GFTFDDYAMH / GIRWNSGSYGYADSVK / VGRGGGYFDY showed nd (0 of 3 replicates; controls 0 of 9). The variant GFTFDDYAMH / MICWNSGSIGYADSVK / VGRGGGYHDY gave nd (0 of 3 replicates; controls 1 of 9). With GFTFDDYAMH / GINWNSGSIGYADSVK / VGRSGGYFDA the result was nd (0 of 3 replicates; controls 1 of 9). For GFTFDDYAMH / GGEWNSGSIGVADSVK / VGRGGGYFDY, the assay gave nd (0 of 3 replicates; controls 0 of 9). With GTTFDDYAMH / GIKWNSGSIGYADHVK / VGRGGGYFDY the result was nd (0 of 3 replicates; controls 4 of 9).

For GFTFDDYAMH / WIYWNSGSRGYADSVK / VGRGGGYFDY, the assay gave nd (0 of 3 replicates; controls 0 of 9). With GFTFDDYAMH / GICWNSGSIGYHDSVK / VARGGGYFDY the result was nd (0 of 3 replicates; controls 1 of 9). The variant GFTFWDYAMH / GIWANSGSIGYADSVK / VGRGGGYFDY showed nd (0 of 3 replicates; controls 0 of 9). For GFLFDDYVMH / GIVWNSGSIGYADSVK / VGRGGGYFDY, the assay gave nd (0 of 3 replicates; controls 0 of 9). With GFTFDDYAMI / GIVWNSGSIGYADSVK / VGRGGGYFDY the result was nd (0 of 3 replicates; controls 0 of 9).

A selection of 5 entries from above:

{"CDR-H1": "GFTFWDYAMH", "CDR-H2": "GIWANSGSIGYADSVK", "CDR-H3": "VGRGGGYFDY", "apparent Kd": "nd", "detected": "0/3", "empty controls": "0/9"}
{"CDR-H1": "GFTVDDYAMH", "CDR-H2": "GIHWNSGHIGYADSVK", "CDR-H3": "VGRGGGYFDY", "apparent Kd": "nd", "detected": "0/3", "empty controls": "0/9"}
{"CDR-H1": "GFLFDDYVMH", "CDR-H2": "GIVWNSGSIGYADSVK", "CDR-H3": "VGRGGGYFDY", "apparent Kd": "nd", "detected": "0/3", "empty controls": "0/9"}
{"CDR-H1": "GFTFDDYAMH", "CDR-H2": "WIYWNSGSRGYADSVK", "CDR-H3": "VGRGGGYFDY", "apparent Kd": "nd", "detected": "0/3", "empty controls": "0/9"}
{"CDR-H1": "GFTFDDYAMH", "CDR-H2": "GINWNSGSIGYADSAK", "CDR-H3": "VWRGGGYFDY", "apparent Kd": "240 µM", "detected": "1/3", "empty controls": "2/9"}

For reference, the parent read 72 nM as the reference entry and 7.5 nM as a member of this library.
As a blank, each scFv also met three strains without target: over library AAYL51, 21% of these pairings were detected, typically at 34 µM and seldom below 1.8 µM. For each scFv, signals with the empty controls are counted beside the result.